Results taken from PMC4109617, “The functionalized amino acid (S)-Lacosamide subverts CRMP2-mediated tubulin polymerization to prevent constitutive and activity-dependent increase in neurite outgrowth” (Frontiers in Cellular Neuroscience, 2014).

Legend:
[1] = target: tubulin (Cytoskeleton Inc.) (UniProt P02550); test: ELISA; tubulin-coated 96-well plates; lysates from cortical cells treated with vehicle, KCl (25 mM, 96 h), (S)-LCM, or KCl + (S)-LCM added, 2 h at room temperature with shaking; bound CRMP2 detected with CRMP2 antibody; OD normalised to protein amount and to the control group (100%)
[2] = target: tubulin (Cytoskeleton Inc.) (UniProt P02550); test: ELISA; 96-well plates coated with tubulin (200 ng/well), blocked with 3% BSA; escalating concentrations of recombinant CRMP2, 2 h at room temperature with shaking; bound CRMP2 detected with CRMP2 antibody, OD450; non-linear regression. In a second panel 1 uM CRMP2 with none or escalating (S)-LCM (up to 1 mM): binding not impacted

| CRMP2 bound to tubulin, % of control lysate, KCl + (S)-LCM [1] | CRMP2 bound to tubulin, % of control lysate, KCl alone [1] | increase of CRMP2 bound to tubulin after KCl exposure (96 h), against control lysate [1] [%] | EC50 [2] [nM] | Substance |
| --- | --- | --- | --- | --- |
| 144 % of control | 134 % of control | 43.5 |  | endogenous CRMP2 from lysates of rat primary cortical neurons (from UniProt P47942 1-572) (natural protein) |
|  |  |  | 607 | recombinant CRMP2 (collapsin response mediator protein 2), wild-type CRMP2-GST (from UniProt P47942 1-572) (natural protein) |
